From ChEMBL document CHEMBL3596151, “Elucidation of the in vitro and in vivo activities of bridged 1,2,4-trioxolanes, bridged 1,2,4,5-tetraoxanes, tricyclic monoperoxides, silyl peroxides, and hydroxylamine derivatives against Schistosoma mansoni” (Bioorg Med Chem, 2015)

System: L6
Assay: Cytotoxicity against rat L6 cells assessed as decrease in cell viability after 72 hrs by resazurin dye based fluorescence analysis
Conditions: for Activity: rat, l6, 72 h

Compound	Activity	IC50 (l6) [µM]
CC(C)C[C@]12OO[C@](C)(OO1)C2C (stereo not given in full)	Non-toxic	
CC(=O)CCC1(Cc2ccc([N+](=O)[O-])cc2)[C@]2(C)OO[C@@]1(C)OO2 (stereo not given in full)	Non-toxic	
CC(C)(C)[C@]12C[C@](C(C)(C)C)(OO1)OO2	Non-toxic	
CC[C@]12C[C@](CC(C)C)(OO1)OO2	Non-toxic	
CC(C)C[C@]12C[C@](C)(OO1)OO2		4.4
